The text below walks through data of PMC10331583, “Control of fibrosis with enhanced safety via asymmetric inhibition of prolyl‐tRNA synthetase 1” (EMBO Molecular Medicine, 2023).

The test system of assay [1] is PARS1 heterodimer (WT/MT; MT, PARS1 FA/EA/RL).
[2] abbreviates: WT/WT, ATP as varied substrate, average of 3 experiments.
Setting [3] is: PARS1: WT/WT, mean of experiments.
Where [4] appears, read: PARS1: WT/MT, mean of experiments.

Where two headings read alike, the source gives them in different places.

As to `Nc1ncnc2c1ncn2[C@@H]1O[C@H](COP(=O)(O)OP(=O)(O)OP(=O)(O)O)[C@@H](O)[C@H]1O` [ATP], in the assay on PARS1 homodimer (WT/WT) (setting [2]), the Km is 371 µM, the Vmax is 0.000459 µM/s and the kcat stood at 0.0153 s⁻¹.

`O=C(O)[C@@H]1CCCN1` [Proline, proline]: the Km in the assay on PARS1 homodimer (WT/WT) (setting [3]) is 31.1 µM; in assay [1] (setting [4]), 53.1 µM. Moreover, the figures for the kcat (in the assay on PARS1 homodimer (WT/WT) (setting [3]); in assay [1] (setting [4])) were 0.0278 s⁻¹ and 0.0217 s⁻¹, respectively. Besides, the Vmax with PARS1 homodimer (WT/WT) (WT/WT, Average of 4 experiments) was 0.000835 µM/s; in assay [1] (WT/MT, Average of 4 experiments), 0.000651 µM/s.

A word on the Km: it is the substrate concentration at which the rate is half of its maximum. One may read the Vmax as the top rate of the reaction or transport when substrate is in excess. As a reminder, the kcat is the number of substrate molecules converted per active site and unit of time at saturation.
